As usually defined, the inhibition is the relative decrease from the control value, in per cent.

Amino acid sequences for entries named in this document (tags omitted).
UniProt Q92743, whole entry, looked up: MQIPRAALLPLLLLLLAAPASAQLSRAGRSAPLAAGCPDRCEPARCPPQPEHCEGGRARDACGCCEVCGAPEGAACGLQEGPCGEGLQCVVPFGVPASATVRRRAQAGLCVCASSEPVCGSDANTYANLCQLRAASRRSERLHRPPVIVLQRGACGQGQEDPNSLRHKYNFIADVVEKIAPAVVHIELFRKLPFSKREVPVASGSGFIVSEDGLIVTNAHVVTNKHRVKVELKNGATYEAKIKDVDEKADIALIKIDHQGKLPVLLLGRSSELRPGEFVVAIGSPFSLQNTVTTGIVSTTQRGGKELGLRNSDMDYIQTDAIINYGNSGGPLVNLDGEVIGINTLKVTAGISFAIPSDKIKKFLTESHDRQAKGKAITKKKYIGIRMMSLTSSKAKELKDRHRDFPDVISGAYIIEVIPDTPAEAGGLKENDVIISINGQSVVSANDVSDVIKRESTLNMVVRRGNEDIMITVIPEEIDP

The list shows a part of the results, in another mix than the full data. Calls of active or inactive are those of the source. Rule as the data show it: active = inhibition above about 36%; inactive = the rest.

The assay has as its target Serine protease HTRA1 (Homo sapiens) (UniProt Q92743). The experiment in a line: HTRA1 serine protease inhibitors, primary screen, biochemical, fluorescence polarization, HTS (AID 504803).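 Also: 0% = enzyme with DMSO and 100% = wells lacking enzyme.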 Conditions: recombinant HTRA1, FP-rhodamine activity-based probe, at 5.96 µM, stronger effect = higher value. For orientation: In fluorescence polarisation assays a small probe gives low polarisation when free and higher when bound to something large.
As for `CCOC(=O)Nc1cccc([As](=O)(O)O)c1`, the inhibition was inactive: -3.75%.
On to `O=P(Nc1ccccn1)(c1cccc2ccccc12)c1cccc2ccccc12`, for which the inhibition is inactive: -19.9%.
With `Cc1cc(SC(NC=O)C(Cl)(Cl)Cl)ncn1` (stereo not given) the figure was inactive: 5.43%; with `O=[N+]([O-])c1ccc(Nc2ccc(Oc3ccc([N+](=O)[O-])cc3[N+](=O)[O-])cc2)c([N+](=O)[O-])c1`, inactive: -6.1%; with `CCOC(=O)Nc1ccc([As](=O)(O)O)c(O)c1`, inactive: 2.15%.
The figure for `O=C(O)C(O)c1ccc(N(CCCl)CCCl)cc1` (stereo not given) is inactive: -0.73%; for `CC1CCNP(=O)(N(CCCl)CCCl)O1` (stereo not given) it is inactive: 3.64%.
For the compound `COP(=O)(OC)N1CC1c1ccccc1` (stereo not given), the inhibition was inactive: 8.97%.
With `CCCCOc1ccc(C(=O)NCC2(N3CCCCC3)CCCCC2)cc1OC`, the inhibition is inactive: 4.01%.
As to `Cc1cc(SC(NC(=O)c2ccccc2)C(Cl)(Cl)Cl)nc(C(C)C)n1` (stereo not given), the inhibition is inactive: -5.26%.
Turning to `O=C(OC1CN2CCC1CC2)c1cccc([N+](=O)[O-])c1` (stereo not given), the inhibition is inactive: 4.57%.
As for `CSc1ccc(Nc2c([N+](=O)[O-])cc([N+](=O)[O-])cc2[N+](=O)[O-])cc1`, the inhibition is active: 48.7%.
`CCOC(=O)c1ccc(NC(=O)C(C)(CCl)SC)cc1` (stereo not given): the inhibition is inactive: 7.48%.
`CCC(C)N(CC(C)C)C(=S)SC(NC(C)=O)C(Cl)(Cl)Cl` (stereo not given): the inhibition was inactive: 7.25%.
For the compound `COP1(=S)c2c(C)nn(CCC#N)c2N=C(c2ccc(F)cc2)N1C` (stereo not given), the inhibition was inactive: -0.22%.
On to `O=C(O)C(=O)c1ccc(N(CCCl)CCCl)cc1`, for which the inhibition is inactive: -1.52%.
With `O=C(COc1ccccc1)OC1CN2CCC1CC2` (stereo not given) the figure was inactive: 2.16%; with `O=C(Nc1ccncc1[N+](=O)[O-])c1ccc([N+](=O)[O-])cc1[N+](=O)[O-]`, inactive: -1.9%; with `COc1ccccc1CNC(=O)COC(=O)C(O)(c1ccccc1)c1ccccc1`, inactive: -7.89%.
Take `CC(C)/C=N\N=C(\N)N[N+](=O)[O-]`: the inhibition is inactive: -1.22%.
For the compound `CN(C(=O)Cc1ccc(Cl)c(Cl)c1)[C@@H]1CCCC[C@H]1N1CCCC1`, the inhibition is inactive: 4.5%.
With `CC1(CBr)Cn2c(nc3ccccc3c2=O)S1` (stereo not given), the inhibition was inactive: -3.04%.
For the compound `O=P1(Nc2ccccn2)COc2ccccc2OC1`, the inhibition is inactive: -3.8%.
The figure for `CCC1=CC2Cc3nc4ccc(Cl)cc4c(N)c3C(C1)C2` (stereo not given) is inactive: -9.2%; for `CCOP(=O)(NC(=NC(C)c1ccccc1)NC(C)c1ccccc1)OCC` (stereo not given) it is inactive: 4.92%.
The figure for `CCOP(=O)(Nc1ccc(C)cn1)OCC` is inactive: 4.42%; for `O=P1(N(CCCl)CCCl)NCCC(C(F)(F)F)O1` (stereo not given) it is inactive: 1.22%.
As for `Clc1n[nH]nc1-c1nn[nH][15n]1`, the inhibition was inactive: 4.74%.
On to `CC(C)(C)C(=O)NC(Sc1ncccn1)C(Cl)(Cl)Cl` (stereo not given), for which the inhibition is inactive: -2.48%.
With `O=P1(Nc2ncccn2)COc2ccccc2OC1`, the inhibition is inactive: 4.8%.
`Nc1cccc([As](=O)(O)c2ccccc2)c1`: the inhibition is inactive: -1.34%.
Regarding `Cc1ccc(OCC(=O)OC2CN3CCC2CC3)cc1` (stereo not given), the inhibition was inactive: -4.3%.
The figure for `O=[As](O)(c1cccs1)c1cccs1` is inactive: 9.55%; for `O=P1(Nc2ccc(Br)cn2)COc2ccccc2OC1` it is inactive: -0.27%.
For `NS(=O)(=O)c1cccc(NC(=O)COC(=O)C(O)(c2ccccc2)c2ccccc2)c1`, the inhibition was inactive: -9.35%.
As to `Cc1nn(-c2ccccc2)c2c1P(=O)(N1CCOCC1)N(C)C(c1ccccc1)=N2` (stereo not given), the inhibition is inactive: -6%.
The figure for `CC1CCC(C(C)C)C(OP(=O)(Nc2ccccn2)c2ccccc2)C1` (stereo not given) is inactive: -18.7%; for `Cc1ccc(C(=O)OC2CN3CCC2CC3)cc1` (stereo not given) it is inactive: -0.07%; for `CN(C)C1(CNC(=O)c2ccc(S(C)(=O)=O)cc2)CCCCC1` it is inactive: 3.2%.
The figure for `O=C(/C=C/c1ccccc1)OC1CN2CCC1CC2` (stereo not given) is inactive: -0.15%.
The figure for `CCCC1OP(=O)(Nc2ccccc2)OCC1CC` (stereo not given) is inactive: 1.47%.
On to `NC(=O)Nc1ccc([As](=O)(O)O)cc1`, for which the inhibition is inactive: -2.92%.
The figure for `N#CCCN(C(=O)COC(=O)C(O)(c1ccccc1)c1ccccc1)c1ccc(F)cc1` is inactive: -0.91%.
With `CN(C(=O)Cc1ccccc1)[C@@H]1CC[C@]2(CCCO2)C[C@H]1N1CCCC1`, the inhibition was inactive: 0.4%.
With `CCOP1(=S)c2c(C)nn(CCC#N)c2N=C(c2ccc(F)cc2)N1C` (stereo not given) the figure was inactive: -0.06%.
Take `O=[N+]([O-])c1ccc2c(c1)nnn2O`: the inhibition is inactive: -0.9%.
In the case of `CN(C)C(=O)c1cc([N+](=O)[O-])cc2c1-c1c(cc([N+](=O)[O-])cc1[N+](=O)[O-])C2=O`, the inhibition was active: 48.5%.
The figure for `CN(C(=O)Cc1ccc(Cl)c(Cl)c1)[C@H]1CC[C@@]2(CCCO2)C[C@@H]1N1CCCC1` is inactive: 1.85%.
In the case of `CCOP1(=S)c2c(C)nn(CCC#N)c2N=C(c2ccccc2F)N1C` (stereo not given), the inhibition was inactive: -0.82%.
The figure for `O=P(Nc1nccs1)(Oc1ccccc1)Oc1ccccc1` is inactive: -1.53%; for `O=P(Nc1nccs1)(c1ccccc1)c1nc2ccccc2s1` (stereo not given) it is inactive: 9.45%; for `CS(=O)(=O)c1cc([N+](=O)[O-])c2no[n+]([O-])c2c1` it is inactive: 12.2%.
For the compound `Nc1ccccc1[As](=O)(O)c1ccccc1`, the inhibition is inactive: 1.57%.
Regarding `O=C(O)COc1ccc([As](=O)(O)O)cc1[N+](=O)[O-]`, the inhibition was inactive: -1.71%.
With `Cc1ccc(NCCc2c([N+](=O)[O-])cc([N+](=O)[O-])cc2[N+](=O)[O-])cc1`, the inhibition is active: 43.3%.
With `Nc1cccc2c([As](=O)(O)O)cccc12` the figure was active: 59.9%; with `CCCOP(=S)(Nc1nc(N)cc(=O)[nH]1)OCCC`, inactive: 3.68%; with `COc1cc(C2NCCC3(OCCO3)C2(C)C)cc(OC)c1OC` (stereo not given), inactive: -2.05%.
The figure for `CCOP(=O)(Nc1cccc2ccccc12)OCC` is inactive: 1.84%.
With `O=C(OC1CN2CCC1CC2)c1ccc(Cl)cc1` (stereo not given) the figure was inactive: 3.97%; with `O=[As](O)(O)c1cccnc1`, inactive: -8.45%; with `COc1cc(C(=O)NCC2(N3CCOCC3)CCCCC2)cc(Cl)c1OC(C)C`, inactive: -3.96%.
Regarding `CS(=O)(=O)c1ccc(Cl)c(NC(=O)COC(=O)C(O)(c2ccccc2)c2ccccc2)c1`, the inhibition is inactive: -8.23%.
The figure for `Cc1cccc(OCC(=O)OC2CN3CCC2CC3)c1` (stereo not given) is inactive: -2.4%; for `O=[As](O)(c1cccc(O)c1)c1cccc(O)c1` it is inactive: 3.96%.
